# Values of other authors in US20260355331A1, “CEREBLON DEGRADER CONJUGATES, AND USES THEREOF” (GENENTECH, INC., priority 2022, published 2026).
# pKd: −log10 of the molar value.
# Experiments:
# [1] = system: Fo5 mammary tumor (HER2); settings: Fo5 mmtv transgenic mouse allograft; cited from earlier work
# [2] = target: extracellular domain of HER2; settings: cell-based assay; cited from earlier work
substance,measurement,setting,value
"Trastuzumab: recombinant DNA-derived, IgG1 kappa, monoclonal antibody that is a humanized version of a murine anti-HER2 antibody (4D5)",response of Fo5 tumors to therapy (in words),[1],"does not respond to, or responds poorly to"
same,pKd,[2],8.30
